# Test results reported in patent publication US20060079453A1, “Hla binding peptides and their uses” (priority 2002, published 2006).
# By UniProt entry, the sequences of proteins in these tests, tags left out. Residues count along the entry.
# UniProt P79483, 30-266: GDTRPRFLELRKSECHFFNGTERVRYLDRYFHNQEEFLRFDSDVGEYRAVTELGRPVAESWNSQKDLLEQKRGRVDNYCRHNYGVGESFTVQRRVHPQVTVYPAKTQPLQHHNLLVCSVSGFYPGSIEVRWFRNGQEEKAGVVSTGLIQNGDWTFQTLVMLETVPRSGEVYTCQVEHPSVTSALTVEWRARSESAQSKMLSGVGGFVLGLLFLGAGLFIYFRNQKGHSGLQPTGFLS
# Where two headings read alike, the source gives them in different places.
# Key:
# Experiment in all cases: biochemical
# Format in all cases: binding
# [1] = target: HLA-DR DRB3*0101 (DR52) (Homo sapiens, UniProt P01903+P79483)
# [2] = target: HLA-DR DRB1*0301 (DR3) (Homo sapiens, UniProt P01903+P01911, A100K/A102G/A103R/A169T/F55Y/I96L/K41T/L162R/M171V/P40S/Q125H/Q178H/Q39Y/R42S/S66N/T106N/T262R/W38E/Y61H)
# [3] = target: HLA-DR DRB1*0701 (DR7) (Homo sapiens, UniProt P01903+P01911, A100R/A102G/A103Q/D57E/D86V/E43K/F76Y/K127E/L162R/M171V/P40G/Q125H/Q99D/R33Q/R42Y/R54Q/S133A/S66F/T210M/V115G/Y107V/Y59L/Y89S); settings: DRB1 *0701
# [4] = target: HLA-DR DRB1*0802 (DR8) (Homo sapiens, UniProt P01903+P01911, A100R/A103L/A169T/F76Y/H45Y/I96F/K41T/L162R/M171V/P40S/Q125H/Q178H/Q39Y/Q99D/R218S/R42G/S66Y/V115G/W38E)
# [5] = target: HLA-DR DRB1*0901 (DR9) (Homo sapiens, UniProt P01903+P01911, A100R/A103E/D57H/D86V/F55Y/F60I/F76Y/I96F/K127E/L162R/M171V/P40D/Q125H/Q99R/R33Q/R42F/S133A/S66N/T210M/V115G/W38K/Y107V/Y59G/Y89S); settings: DRB1 *0901
# [6] = target: HLA-DR DRB4*0101 (DR53) (Homo sapiens, UniProt P01903+P13762, G164S)
# [7] = target: HLA-DR DRB1*1101 (DR11) (Homo sapiens, UniProt P01903+P01911, A100R/A169T/A87E/I96F/K41T/L162R/M171V/P40S/Q125H/Q178H/Q39Y/Q99D/R42S/S66Y/T262R/V115G/W38E); settings: read-out: DRB1 *1101
molecule,measurement,setting,value
CC[C@H](C)[C@H](NC(=O)[C@H](CO)NC(=O)[C@H](CC(C)C)NC(=O)[C@@H](NC(=O)[C@H](CC(C)C)NC(=O)[C@H](CC(=O)O)NC(=O)[C@H](Cc1c[nH]c2ccccc12)NC(=O)[C@@H](N)CCSC)C(C)C)C(=O)N[C@@H](C)C(=O)N[C@@H](CC(C)C)C(=O)N[C@@H](CO)C(=O)N[C@H](C(=O)NCC(=O)N[C@@H](CS)C(=O)N[C@H](C(=O)O)[C@@H](C)O)C(C)C,IC50,[1],15.2 µM
CC(C)C[C@H](NC(=O)[C@H](CC(C)C)NC(=O)[C@@H](N)CC(N)=O)C(=O)N[C@@H](C)C(=O)N[C@@H](CC(N)=O)C(=O)N[C@H](C(=O)N[C@@H](Cc1ccc(O)cc1)C(=O)N[C@@H](Cc1c[nH]cn1)C(=O)N[C@@H](CCC(N)=O)C(=O)N[C@@H](CCCNC(=N)N)C(=O)N[C@@H](CC(N)=O)C(=O)N[C@@H](Cc1c[nH]cn1)C(=O)N[C@@H](CC(C)C)C(=O)N[C@@H](CCCCN)C(=O)N[C@H](C(=O)O)[C@@H](C)O)C(C)C,IC50,[2],40.3 µM
same,IC50,[3],8 µM
same,IC50,[1],> 123 µM
CC[C@H](C)[C@H](NC(=O)[C@H](CCC(=O)O)NC(=O)[C@H](CCC(=O)O)NC(=O)[C@@H]1CCCN1)C(=O)N[C@@H](CCCCN)C(=O)N[C@@H](CCC(N)=O)C(=O)N[C@@H](CC(C)C)C(=O)N[C@@H](CCC(N)=O)C(=O)N[C@@H](CCC(N)=O)C(=O)N[C@@H](Cc1ccccc1)C(=O)N[C@@H](CCC(N)=O)C(=O)N[C@@H](CCCCN)C(=O)N[C@@H](CCC(=O)O)C(=O)N[C@@H](CC(=O)O)C(=O)N[C@@H](C)C(=O)O,IC50,[2],40.2 µM
same,IC50,[3],49.5 µM
same,IC50,[4],11.9 µM
same,IC50,[5],> 77.3 µM
same,IC50,[1],> 26.3 µM
CC[C@H](C)[C@H](NC(=O)[C@@H](N)CCC(N)=O)C(=O)N[C@@H](Cc1ccc(O)cc1)C(=O)N[C@H](C(=O)N[C@@H](C)C(=O)N[C@@H](C)C(=O)N[C@@H](Cc1ccccc1)C(=O)N[C@H](C(=O)N[C@H](C(=O)N[C@@H](CCC(N)=O)C(=O)N[C@@H](C)C(=O)N[C@@H](C)C(=O)N[C@@H](C)C(=O)N[C@@H](CCC(=O)O)C(=O)N[C@H](C(=O)O)[C@@H](C)O)C(C)C)[C@@H](C)O)C(C)C,IC50,[1],1.32 µM
CC(C)C[C@H](NC(=O)[C@H](CCCNC(=N)N)NC(=O)CNC(=O)[C@H](CC(N)=O)NC(=O)[C@H](CC(C)C)NC(=O)[C@H](CCC(N)=O)NC(=O)[C@H](Cc1c[nH]c2ccccc12)NC(=O)[C@H](CC(C)C)NC(=O)[C@H](CC(C)C)NC(=O)[C@H](CCCCN)NC(=O)[C@H](CCC(N)=O)NC(=O)[C@H](CO)NC(=O)[C@@H](N)CCC(N)=O)C(=O)N[C@@H](CCC(=O)O)C(=O)N[C@@H](Cc1ccc(O)cc1)C(=O)O,IC50,[3],1.17 µM
same,IC50,[6]; DRB4 *0101,0.166 µM
CSCC[C@H](NC(=O)[C@H](CCCNC(=N)N)NC(=O)[C@H](CCCCN)NC(=O)[C@H](Cc1c[nH]c2ccccc12)NC(=O)[C@H](C)NC(=O)[C@H](Cc1ccc(O)cc1)NC(=O)[C@H](Cc1ccccc1)NC(=O)[C@H](CC(N)=O)NC(=O)[C@@H](N)C(C)C)C(=O)N[C@@H](CCC(=O)O)C(=O)N[C@H](C(=O)NCC(=O)N[C@@H](CCC(N)=O)C(=O)N[C@@H](CCC(N)=O)C(=O)N[C@@H](C)C(=O)O)C(C)C,IC50,[1],22.5 µM
CC(C)C[C@H](NC(=O)[C@H](Cc1c[nH]cn1)NC(=O)[C@H](CC(N)=O)NC(=O)[C@H](CCCNC(=N)N)NC(=O)[C@H](CCC(N)=O)NC(=O)[C@H](Cc1c[nH]cn1)NC(=O)[C@H](Cc1ccc(O)cc1)NC(=O)[C@@H](N)C(C)C)C(=O)N[C@@H](CCCCN)C(=O)N[C@H](C(=O)N[C@H](C(=O)N[C@@H](CC(C)C)C(=O)N[C@@H](CCC(=O)O)C(=O)N[C@@H](CCC(=O)O)C(=O)N[C@@H](CCCCN)C(=O)O)C(C)C)[C@@H](C)O,IC50,[5],> 77.3 µM
same,IC50,[1],> 123 µM
SHDLMLLRISEPAEL,IC50,[7],4.47 µM
same,IC50,[1]; read-out: DRB3 *0101,13.6 µM
TYSVSFDSLFSAVKN,IC50,[1]; read-out: DRB3 *0101,8.55 µM
same,IC50,[6]; read-out: DRB4 *0101,10.5 µM
VYDFVFADLRGVYRD,IC50,[7],12.2 µM
same,IC50,[6]; read-out: DRB4 *0101,4.39 µM
